Data on 22 compounds can be found in ChEMBL document CHEMBL1158463 (J Med Chem, 2009).

Calls of active or inactive are those of the source. The calls are words filed in the database; no cut-off is given here.

The test system of this assay is Mus musculus. As to the kind of experiment: Antagonist activity at ORL1 receptor in CD1 (ICR) mouse assessed as reversal of WO03/10168-induced locomotor activity at 10 mg/kg, sc administered 30 mins prior to WO03/10168 challenge.

Consider `O=c1n(C[C@@H](O)CO)c2ccccc2n1C1CCN(C[C@H]2[C@H]3CC[C@H](C3)C23CC3)CC1`, for which the outcome was inactive. On to `CCn1c(=O)n([C@@H]2CCN(CC3CCCCC3)C[C@H]2CO)c2ccccc21`, for which the outcome was inactive. The same measure for `CCn1c(=O)n([C@@H]2CCN(CC3CCCC34CC4)C[C@H]2CO)c2ccccc21` (some centres not stated): “inactive”; for `CCn1c(=O)n([C@@H]2CCN(C[C@@H]3C[C@@H]4CC[C@H]3C4)C[C@H]2CO)c2ccccc21`: “inactive”. As for `CCn1c(=O)n([C@@H]2CCN(CC3CCCC34CCCC4)C[C@H]2CO)c2ccccc21` (some centres not stated), the result was inactive. Then `CCn1c(=O)n([C@@H]2CCN(CCC3(C)CCCC3)C[C@H]2CO)c2ccccc21`, with “inactive”.

In the case of `CCn1c(=O)n([C@@H]2CCN(CC3CCCCCCCC3)C[C@H]2CO)c2ccccc21`, the result was inactive. For the compound `O=c1n(C[C@H](O)CO)c2ccccc2n1C1CCN(C[C@H]2[C@H]3CC[C@H](C3)C23CC3)CC1`, the result was inactive. Consider `O=c1n(C(CO)CO)c2ccccc2n1C1CCN(C[C@H]2[C@H]3CC[C@H](C3)C23CC3)CC1`, for which the outcome was inactive.

As to `CCn1c(=O)n([C@@H]2CCN(CC3CCCCC34CCC4)C[C@H]2CO)c2ccccc21` (some centres not stated), the outcome was inactive.

As for `CCn1c(=O)n([C@@H]2CCN(CC3CCCCC34CCCCC4)C[C@H]2CO)c2ccccc21` (some centres not stated), the outcome was inactive. Regarding `CCn1c(=O)n([C@@H]2CCN(CC3CCCCC3(C)C)C[C@H]2CO)c2ccccc21` (some centres not stated), the outcome was inactive. Then `CCn1c(=O)n([C@@H]2CCN(CC3CCCC3(C)C)C[C@H]2CO)c2ccccc21` (some centres not stated), with “inactive”; and `CCn1c(=O)n([C@@H]2CCN(CC3CCCCC34CCCC4)C[C@H]2CO)c2ccccc21` (some centres not stated), with “inactive”; and `CCn1c(=O)n([C@@H]2CCN(CCC(C)(C)C)C[C@H]2CO)c2ccccc21`, with “inactive”.

As for `CCn1c(=O)n([C@@H]2CCN(CC3CCCCC34CC4)C[C@H]2CO)c2ccccc21` (some centres not stated), the result was inactive. Then `CCn1c(=O)n([C@@H]2CCN(CC3CCCCCC3)C[C@H]2CO)c2ccccc21`, with “inactive”. With `CCn1c(=O)n([C@@H]2CCN(CC3CCCC34CCCCC4)C[C@H]2CO)c2ccccc21` (some centres not stated), the outcome was inactive. The same measure for `CCn1c(=O)n([C@@H]2CCN(C[C@H]3[C@H]4CC[C@H](C4)C3(C)C)C[C@H]2CO)c2ccccc21`: “inactive”; for `CCn1c(=O)n([C@@H]2CCN(CC3CCCC3)C[C@H]2CO)c2ccccc21`: “inactive”. For the compound `CCn1c(=O)n([C@@H]2CCN(CC3CCCC34CCC4)C[C@H]2CO)c2ccccc21` (some centres not stated), the outcome was inactive. Then `CCn1c(=O)n([C@@H]2CCN(CC3CCCCCCCCC3)C[C@H]2CO)c2ccccc21`, with “inactive”.
